This note sets out measurements from ChEMBL document CHEMBL5579880, “Rational Design of a Novel 6H-Benzo[c]chromen Series as Selective PI3Kα Inhibitors” (J Med Chem, 2024).

Sequences of proteins named here, by UniProt entry; tags and fusion partners are left off.
UniProt P11309, whole entry, looked up: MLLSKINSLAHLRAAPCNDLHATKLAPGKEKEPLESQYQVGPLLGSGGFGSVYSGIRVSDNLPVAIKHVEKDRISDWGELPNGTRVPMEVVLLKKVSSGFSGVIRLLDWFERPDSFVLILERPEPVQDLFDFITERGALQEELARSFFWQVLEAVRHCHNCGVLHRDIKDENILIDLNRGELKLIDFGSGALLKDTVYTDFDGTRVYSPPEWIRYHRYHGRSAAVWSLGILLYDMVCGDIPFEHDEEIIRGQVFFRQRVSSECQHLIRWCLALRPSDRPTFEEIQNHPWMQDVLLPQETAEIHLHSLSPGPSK

Test [1] has as its target Serine/threonine-protein kinase pim-1 (Homo sapiens) (UniProt P11309). Put plainly: Inhibition of PIM1 (unknown origin) at 1 uM relative to control.
In test [2] the target is Serine/threonine-protein kinase mTOR (Homo sapiens) (UniProt P42345). Nature of the test: Inhibition of mTOR (unknown origin) at 1 uM relative to control.

What is called inhibition is the drop in the measured response relative to a control, in per cent. The low end stands for a response near the control, the high end for a response far below the control. Consider `CCNc1cc(-c2ccc3c(c2)-c2ccc(O[C@@H](C)C(N)=O)cc2OC3)ncn1`, for which the inhibition in test [1] came to 79%; in test [2] it was 61%.
